# How the values were obtained:
# [1] = molecular target: Full length human N-WASP, TAP-tagged at the C-terminus (Myc-N-WASP-TAP) (human); test: cell-based or functional assay
# [2] = molecular target: Full length human WASP, TAP-tagged at the C-terminus (Myc-WASP-TAP) (human); test: cell-based or functional assay
Barbed ends [1],Barbed ends % of max. [1],EC50 [1],acceleration of actin polymerization [1],Barbed ends [2],Barbed ends % of max. [2],EC50 [2],acceleration of actin polymerization [2],Substance
3.4 nM,75%,11 nM,13 fold,4 nM,94%,10 nM,13 fold,GST-tev-Nck1
–,–,31 nM,–,–,–,80 nM,–,GST-tev-Rac1 (enzyme)

# From US20060003399A1, “High throughput actin polymerization assay” (Cytokinetics, Inc., priority 2004, published 2006)
